Experimental data from patent publication US20210261539A1, “COMPOUND HAVING BET INHIBITORY ACTIVITY AND PREPARATION METHOD AND USE THEREFOR” (Shanghai Haihe Pharmaceutical Co., Ltd., priority 2018, published 2021).

Target: BRD4 BD1 (Homo sapiens, UniProt O60885)
Experiment: HTRF in vitro enzyme activity assay, inhibition of BRD4 BD1 binding to acetylated H4 peptide
Details: read-out: BRD4 IC50; IC50 values of the compounds against BRD4 BD1 binding; class symbols A/B/C
Experimental: Effect Examples: In Vitro Enzyme Activity Assay
Half inhibitory activity (IC50) of the compounds of the invention against the bromodomain protein BRD4 BD1 was determined in the present Examples.
The compounds of the invention were tested for inhibitory activity against BRD4 BD1 with Homogeneous Time-Resolved Fluorescence (HTRF).
2. Reagents, Consumable Materials and Instruments:
Protein BRD4 BD1 used in the assay was purchased from Active Motif (cat. 31380); streptavidin XL-665 (#610SAXLA) and EPIgeneous Binding Domain Kit A (#62BDAPEG) were both purchased from Cisbio Bioassays; [Lys(5,8,12,16)Ac] H4(1-21)-biotin (#64989), [Lys(5,8,12,16)Ac]H4(1-25) were available from Anaspec; OTX015 and ABBV-075 were purchased from Selleckchem Co. The 384-well ProxiPlate (#6008280) was purchased from Perkinelmer Co. The Laboratory microplate reader (Envision 2104) was available from PerkinElmer Co. The water used in the assay was Millipore-Q pure water.
3. Formulation of the Compound […]
6) 10 μL of detection mixture (2×) was added to each well, incubated at RT for 3 h. The mp value was read by microplate reader Envision with the following parameters: […]

Compound	IC50
C[C@H]1Oc2nc(N3C(=O)c4ccccc4C3c3ccc(F)cc3)ncc2N(C)C1=O (some centres unmarked)	< 10 nM
CCN1C(=O)C(C)N(C2CC2)c2nc(N3C(=O)c4ccccc4C3c3ccc(Cl)cc3)ccc21 (single isomer, unassigned)	< 10 nM
